Data on 1 substance can be found in patent US20090221708A1, “Medicinal preparation” (priority 2004, published 2009).

Experiment [1] has as its system cancer cells PC-3 (prostate carcinoma). Briefly: Example 1: mitochondrial membranes of cancer cells PC-3 in test tubes. The format is cell-based.
The next experiment has as its system melanoma-16. The experiment can be described thus: Example 8: mice inoculated with melanoma-16. The format is in vivo. The note with it: single dose of 5 mg as a drink.

“Reaferon: recombinant α2 Interferon produced from the pseudomonad bacterial strain”: in experiment [1] (PC-3, 24 hours at 37° C.), the “destruction of mitochondrial membranes” value is given as “approx. 60%”. Moreover, the “mitochondrial membranes of cancer cells (appearance)” value in experiment [1] (PC-3, dilution 10^−5 mmol/l, 24 hours at 37° C.) is on record as “membrane swelling”. Further, in the experiment on melanoma-16, the “mice alive on the 36th day of the test” value is given as 4 mice.
